The entries are a selection whose mix differs from that of the whole data set. Calls of active or inactive are those of the source.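 The calls were made as follows: active = viability at or below 10% of carrier control in both of two separate runs; inconclusive = viability at or below 10% in only one of the two runs; inactive = the rest.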
experiment: reduced viability of SK-BR-3 breast cancer cells – cell-based, 24 h, human, pilot screen (AID 572); details: SK-BR-3 viability, CellTiter-Glo luminescence, at 10 µM, stronger effect = lower value;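 also: compound exposure lasted between 18 and 24 h rather than exactly 24 h; 100% = carrier-treated control wells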

Row | Compound | viability
1 | O=P(Nc1nccs1)(c1ccccc1)c1ccccc1 | inactive: 102%
2 | O=C(COc1ccccc1)OC1CN2CCC1CC2 (stereo not drawn) | inactive: 94.5%
3 | CCOP1(=S)c2c(C)nn(CCC#N)c2N=C(c2ccccc2F)N1C (stereo not drawn) | inactive: 114%
